Values of other authors in paper PMC5072831, “Novel Nuclear Factor-KappaB Targeting Peptide Suppresses β-Amyloid Induced Inflammatory and Apoptotic Responses in Neuronal Cells” (PLoS ONE, 2016).

Protein sequences, listed by entry. Tags and fused reporters are not part of them.
UniProt Q04206, whole entry: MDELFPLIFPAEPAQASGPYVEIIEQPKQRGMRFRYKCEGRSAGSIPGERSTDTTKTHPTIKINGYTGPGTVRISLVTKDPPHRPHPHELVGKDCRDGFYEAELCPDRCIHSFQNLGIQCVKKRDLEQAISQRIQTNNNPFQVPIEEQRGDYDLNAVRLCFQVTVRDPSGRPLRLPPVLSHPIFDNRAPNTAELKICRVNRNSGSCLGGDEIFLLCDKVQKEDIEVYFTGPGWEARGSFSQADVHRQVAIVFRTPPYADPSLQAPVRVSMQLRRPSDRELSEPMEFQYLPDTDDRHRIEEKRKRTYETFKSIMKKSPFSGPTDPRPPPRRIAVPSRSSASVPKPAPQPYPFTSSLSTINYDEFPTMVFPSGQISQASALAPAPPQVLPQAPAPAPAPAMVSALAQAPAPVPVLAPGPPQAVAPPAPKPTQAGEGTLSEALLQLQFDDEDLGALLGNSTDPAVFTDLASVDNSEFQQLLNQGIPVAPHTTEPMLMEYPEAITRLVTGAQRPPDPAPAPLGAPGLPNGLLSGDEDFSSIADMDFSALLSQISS

Molecular target: T1, r-p65 (Homo sapiens, UniProt Q04206)
T1 construct: purchased Ori-Gene Technologies Inc., Rockville, MD TP320780
Conditions: previously shown; ref [27]; read-out: strength of interaction with r-p65 (KD); cited from earlier work
Procedure: We used similar method to determine direct binding kinetics of GA hexapeptides with human r-p65. High binding ELISA plates were coated with increasing concentrations of r-GILZ (0.5μM to 20μM) or each GA or control peptide (20μM-640μM) and probed with 80μM r-p65 followed by detection with anti-DDK antibody. Absorbance at 650nm was measured with a mixing time of 30s using BIORAD microplate reader. […] The strength of interact ...

B1: r-GILZ: purified recombinant human GILZ protein with GST tag (Ori-Gene) (protein)
chain: MNTEMYQTPMEVAVYQLHNFSISFFSSLLGGDVVSVKLDNSASGASVVAIDNKIEQAMDLVKNHLMYAVREEVEILKEQIRELVEKNSQLERENTLLKTLASPEQLEKFQSCLSPEEPAPESPQVPEAPGGSAV
modifications: left off: GST, end not stated, state not stated
For B1, the Kd is given as 591 nM.
